Experimental data: patent US20250129135A1, “Multi-Agonist and Use Thereof” (priority 2021, published 2025)
pEC50: −log10 of the molar value.

The chains behind the UniProt entries cited, without tags or fusion partners. Residues count along the entry.
UniProt P47871, 26-477: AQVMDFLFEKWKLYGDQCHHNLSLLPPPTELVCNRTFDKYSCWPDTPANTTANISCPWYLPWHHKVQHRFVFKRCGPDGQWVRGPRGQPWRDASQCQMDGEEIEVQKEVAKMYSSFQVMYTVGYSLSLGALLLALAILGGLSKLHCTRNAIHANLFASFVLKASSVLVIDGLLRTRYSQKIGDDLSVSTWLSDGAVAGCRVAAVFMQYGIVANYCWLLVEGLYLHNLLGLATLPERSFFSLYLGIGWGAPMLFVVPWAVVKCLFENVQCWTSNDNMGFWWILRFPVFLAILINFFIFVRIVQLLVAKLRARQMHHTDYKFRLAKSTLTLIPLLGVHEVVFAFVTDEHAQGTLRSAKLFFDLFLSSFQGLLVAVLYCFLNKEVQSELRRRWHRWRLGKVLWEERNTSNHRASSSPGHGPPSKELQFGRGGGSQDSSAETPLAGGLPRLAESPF
UniProt P43220, 24-463: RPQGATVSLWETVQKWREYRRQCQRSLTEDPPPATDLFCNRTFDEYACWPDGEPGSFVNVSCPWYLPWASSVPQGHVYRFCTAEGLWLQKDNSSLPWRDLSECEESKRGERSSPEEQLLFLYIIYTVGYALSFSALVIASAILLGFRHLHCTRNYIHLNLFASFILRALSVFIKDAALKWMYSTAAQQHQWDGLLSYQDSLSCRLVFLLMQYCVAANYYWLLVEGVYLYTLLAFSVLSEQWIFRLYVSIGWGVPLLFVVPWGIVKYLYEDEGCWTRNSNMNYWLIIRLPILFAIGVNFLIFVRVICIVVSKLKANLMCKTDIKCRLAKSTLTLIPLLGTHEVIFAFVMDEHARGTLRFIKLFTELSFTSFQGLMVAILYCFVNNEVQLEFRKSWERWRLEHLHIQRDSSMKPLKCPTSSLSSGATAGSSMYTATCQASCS

How the values were obtained:
Human GIP R = biological target: T1, Human GIP R (Homo sapiens, UniProt P48546); experiment: cAMP (HTRF) activity in CHO cells stably overexpressing GIP receptor; format: cell-based; conditions: for Human GIP R Rel. A (Relative Activity): EC50 of human GIP / EC50 of compound
T1 construct: expressed in transfected cells; host or cells: CHO
T1 sequence (P48546 22-466): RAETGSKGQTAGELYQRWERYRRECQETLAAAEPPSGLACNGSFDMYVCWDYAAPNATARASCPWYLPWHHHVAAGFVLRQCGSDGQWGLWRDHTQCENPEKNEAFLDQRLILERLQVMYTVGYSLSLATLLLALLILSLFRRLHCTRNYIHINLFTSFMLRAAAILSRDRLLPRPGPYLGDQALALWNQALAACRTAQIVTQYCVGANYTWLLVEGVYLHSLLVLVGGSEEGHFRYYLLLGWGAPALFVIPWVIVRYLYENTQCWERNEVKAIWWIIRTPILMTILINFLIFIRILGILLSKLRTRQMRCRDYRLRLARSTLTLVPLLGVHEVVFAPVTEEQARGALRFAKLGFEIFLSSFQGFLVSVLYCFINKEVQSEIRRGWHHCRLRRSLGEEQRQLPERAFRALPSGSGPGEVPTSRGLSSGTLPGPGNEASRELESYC
Method: (§1) By measuring the cAMP signal response levels of the aforementioned cells, the agonistic activity of individual compound towards the corresponding receptor was determined. The intracellular cAMP content was measured using reagent kit available from Cisbio Corp. based on HTRF (homogeneous time-resolved fluorescence) technology.
(§2) The cell fluid was transferred to 10 ml of HBSS for resuspension, and centrifuged at 1000 rpm for 5 minutes at room temperature.
(§3) 10 μL cell suspension was added to each well in the 384 well plate. […] Using the ECHO liquid transfer system, 100 nL of the prepared compound solution was added to the corresponding cell suspensions in the 384 well plate, rotated and shaken at 1000 rpm for 1 minute to mix evenly, and then incubated at room temperature for 60 minutes. 10 μL of detection reagent was added to each well after drug incubation was completed, and incubation was performed in the kit at room temperature for 60 minutes. […] GraphPad Prism 5 plotting software was used to create compound concentration response curves and EC50 (nM) values was calculated.

Human GCG R = biological target: T2, Human GCG R (Homo sapiens, UniProt P47871); experiment: cAMP (HTRF) activity in HEK-293 cells stably overexpressing human GCG receptor; format: cell-based; conditions: EC50 of human GCG / EC50 of compound
T2 construct: expressed in transfected cells; host or cells: HEK-293
Method: as §1, §2, §3

RIN-m5F cells = format: cell-based, rat; conditions: for pEC50: cAMP, at least 3 independent tests, read-out: EC50 on RIN-m5F rat pancreatic islet tumor cells; for Rel. A (Relative Activity) on RIN-m5F: relative to GLP-1(7-37)
Method: This experiment measured the cAMP level produced by the compound on RIN-mF cells.
Frozen […] cells were placed in a 37° C. constant temperature water bath for rapid thawing and recovery. The cell solution was transferred to 10 ml of HBSS for resuspension, and centrifuged at 1000 rpm for 5 minutes at room temperature.
(§4) 10 μL cell suspension was added to each well in the 384 well plate. […] Using the ECHO liquid transfer system, 100 nL of the prepared compound solution was added to the corresponding cell suspensions in the 384 well plate, rotated and shaken at 1000 rpm for 1 minute to mix evenly, and then incubated at room temperature for 60 minutes. 10 μL of detection reagent was added to each wells after drug incubation was completed, and incubation was performed for 60 minutes.

3T3-L1 adipocytes = conditions: for pEC50: read-out: EC50 on mouse 3T3-L1 adipocyte, cAMP, at least 3 independent tests; for Rel. A (Relative Activity) on 3T3-L1 adipocyte: relative to GIP
Method: Mouse 3T3-L1 precursor adipocytes can be induced to differentiate into mature adipocytes. […] After the cells became full and contacted with each other, DMEM differentiation medium containing 20% FBS, 0.5 mM IBMX, 0.4 ug/mL dexamethasone, and 5 ug/mL insulin was used to induce differentiation of 3T3-L1 adipocyte. After 5 days of induction and cultivation, DMEM medium containing […], 4 ug/ml insulin, and 10 uM rosiglitazone was used to continue induction and cultivation for 3 days. Then, DMEM medium containing 10% FBS was used to continue cultivation for 2-3 days to induce mature 3T3-L1 adipocytes.
The cAMP level produced by the compound on 3T3-L1 adipocytes was determined in this experiment. The tested compound solution was diluted step by step according to a concentration gradient of 3 times, to obtain a total of 10 series of concentration solutions. The solutions were added to induced mature 3T3-L1 adipocytes and incubated at room temperature for 60 minutes. 10 μL detection reagent in the kit was added to each well after drug incubation, and incubated at room temperature for another 60 minutes. […] GraphPad Prism 5 plotting software was used to create compound concentration-effect curves and calculation was performed.

[1] = tested on: human primary liver cells; format: cell-based; conditions: for pEC50: cAMP, at least 3 independent tests, read-out: EC50 on human primary liver cells; for Rel. A (Relative Activity) on human primary liver cells: relative to GCG
Method: The cAMP levels produced by compounds on human primary liver cells were determined in this experiment. Human primary liver cells were purchased from Lonza (cell product number HUCPG).
Frozen human primary liver cells were placed in a 37° C. constant temperature water bath for rapid thawing and recovery. The cell solution was transferred to 10 ml of HBSS for resuspension, and centrifuged at 1000 rpm for 5 minutes at room temperature.
as §4, with “well” for “wells”

Human GLP-1R = Human GLP-1R (Homo sapiens, UniProt P43220); experiment: cAMP (HTRF) activity in HEK-293 cells stably overexpressing human GLP-1 receptor; format: cell-based; design: expressed in transfected cells; host or cells: HEK-293; conditions: for Human GLP-1R Rel. A (Relative Activity): EC50 of human GLP-1 (7-37) / EC50 of compound
Method: as §1, §2, §3

Structure (SMILES)	pEC50 (Human GIP R)	Human GIP R Rel. A (Relative Activity) (Human GIP R) [%]	Human GCG R Rel. A (Relative Activity) (Human GCG R) [%]	pEC50 (RIN-m5F cells)	Rel. A (Relative Activity) on RIN-m5F (RIN-m5F cells) [%]	pEC50 (3T3-L1 adipocytes)	Rel. A (Relative Activity) on 3T3-L1 adipocyte (3T3-L1 adipocytes) [%]	pEC50 [1]	Rel. A (Relative Activity) on human primary liver cells [1] [%]	pEC50 (Human GLP-1R)	Human GLP-1R Rel. A (Relative Activity) (Human GLP-1R) [%]
CC[C@H](C)[C@H](NC(=O)[C@H](Cc1ccccc1)NC(=O)[C@H](C)NC(=O)C(C)(C)NC(=O)[C@H](CCC(N)=O)NC(=O)[C@H](C)NC(=O)[C@H](CCCCNC(=O)COCCOCCNC(=O)COCCOCCNC(=O)CC[C@H](NC(=O)CCCCCCCCCCCCCCCCCCC(=O)O)C(=O)O)NC(=O)[C@H](CCCCN)NC(=O)[C@H](CC(=O)O)NC(=O)[C@H](CC(C)C)NC(=O)[C@](C)(CC(C)C)NC(=O)[C@@H](NC(=O)[C@H](CO)NC(=O)[C@H](Cc1ccc(O)cc1)NC(=O)[C@H](CC(=O)O)NC(=O)[C@H](CO)NC(=O)[C@@H](NC(=O)[C@](C)(Cc1ccccc1)NC(=O)[C@@H](NC(=O)CNC(=O)[C@H](CCC(N)=O)NC(=O)C(C)(C)NC(=O)[C@@H](N)Cc1ccc(O)cc1)[C@@H](C)O)[C@@H](C)O)[C@@H](C)CC)C(=O)N[C@@H](CCC(=O)O)C(=O)N[C@@H](Cc1ccc(O)cc1)C(=O)N[C@@H](CC(C)C)C(=O)N[C@@H](CC(C)C)C(=O)N[C@@H](CCC(=O)O)C(=O)N[C@H](C(=O)NCC(=O)N1CCC[C@H]1C(=O)N[C@@H](CO)C(=O)N[C@@H](CO)C(=O)NCC(=O)N[C@@H](C)C(=O)N1CCC[C@H]1C(=O)N1CCC[C@H]1C(=O)NC1(C(=O)N[C@@H](CO)C(N)=O)CC1)[C@@H](C)O [Compound 1]	10.82	1206.67	57.58	9.33	220.99	8.14	52.65	8.78	236.10	10.68	209.52
CC[C@H](C)[C@H](NC(=O)[C@H](Cc1ccccc1)NC(=O)[C@H](C)NC(=O)C(C)(C)NC(=O)[C@H](CCC(N)=O)NC(=O)[C@H](C)NC(=O)[C@H](CCCCNC(=O)COCCOCCNC(=O)COCCOCCNC(=O)CC[C@H](NC(=O)CCCCCCCCCCCCCCCCCCC(=O)O)C(=O)O)NC(=O)[C@H](CCCCN)NC(=O)[C@H](CC(=O)O)NC(=O)[C@H](CC(C)C)NC(=O)[C@H](Cc1ccccc1)NC(=O)[C@@H](NC(=O)[C@H](CO)NC(=O)[C@H](Cc1ccc(O)cc1)NC(=O)[C@H](CC(=O)O)NC(=O)[C@H](CO)NC(=O)[C@@H](NC(=O)[C@](C)(Cc1ccccc1)NC(=O)[C@@H](NC(=O)CNC(=O)[C@H](CCC(N)=O)NC(=O)C(C)(C)NC(=O)[C@@H](N)Cc1ccc(O)cc1)[C@@H](C)O)[C@@H](C)O)[C@@H](C)CC)C(=O)N[C@@H](CCC(=O)O)C(=O)N[C@@H](Cc1ccccc1)C(=O)N[C@@H](CC(C)C)C(=O)N[C@@H](CC(C)C)C(=O)N[C@@H](CCC(=O)O)C(=O)N[C@H](C(=O)NCC(=O)N1CCC[C@H]1C(=O)N[C@@H](CO)C(=O)N[C@@H](CO)C(=O)NCC(=O)N[C@@H](C)C(=O)N1CCC[C@H]1C(=O)N1CCC[C@H]1C(=O)N1CCC[C@H]1C(=O)N[C@@H](CO)C(N)=O)[C@@H](C)O [Compound 12]	–	220.73	13.67	–	–	8.22	63.64	–	–	10.85	314.29
CC[C@H](C)[C@H](NC(=O)[C@H](Cc1ccccc1)NC(=O)[C@H](C)NC(=O)C(C)(C)NC(=O)[C@H](CCC(N)=O)NC(=O)[C@H](C)NC(=O)[C@H](CCCCNC(=O)COCCOCCNC(=O)COCCOCCNC(=O)CC[C@H](NC(=O)CCCCCCCCCCCCCCCCCCC(=O)O)C(=O)O)NC(=O)[C@H](CCCCN)NC(=O)[C@H](CC(=O)O)NC(=O)[C@H](CC(C)C)NC(=O)[C@](C)(CC(C)C)NC(=O)[C@@H](NC(=O)[C@H](CO)NC(=O)[C@H](Cc1ccc(O)cc1)NC(=O)[C@H](CC(=O)O)NC(=O)[C@H](CO)NC(=O)[C@@H](NC(=O)[C@](C)(Cc1ccccc1)NC(=O)[C@@H](NC(=O)CNC(=O)[C@H](CCC(N)=O)NC(=O)C(C)(C)NC(=O)[C@@H](N)Cc1ccc(O)cc1)[C@@H](C)O)[C@@H](C)O)[C@@H](C)CC)C(=O)N[C@@H](CCC(=O)O)C(=O)N[C@@H](Cc1ccccc1)C(=O)N[C@@H](CC(C)C)C(=O)N[C@@H](CC(C)C)C(=O)N[C@@H](CCC(=O)O)C(=O)N[C@H](C(=O)NCC(=O)N1CCC[C@H]1C(=O)N[C@@H](CO)C(=O)N[C@@H](CO)C(=O)NCC(=O)N[C@@H](C)C(=O)N1CCC[C@H]1C(=O)N1CCC[C@H]1C(=O)N1CCC[C@H]1C(=O)N[C@@H](CO)C(N)=O)[C@@H](C)O [Compound 14]	10.96	1645.45	50.00	9.62	431.80	–	–	8.34	85.22	11.00	440.00
CC[C@H](C)[C@H](NC(=O)[C@H](Cc1ccccc1)NC(=O)[C@H](C)NC(=O)C(C)(C)NC(=O)[C@H](CCC(N)=O)NC(=O)[C@H](C)NC(=O)[C@H](CCCCNC(=O)COCCOCCNC(=O)COCCOCCNC(=O)CC[C@H](NC(=O)CCCCCCCCCCCCCCCCCCC(=O)O)C(=O)O)NC(=O)[C@H](CCCCN)NC(=O)[C@H](CC(=O)O)NC(=O)[C@H](CC(C)C)NC(=O)[C@H](Cc1ccccc1)NC(=O)[C@@H](NC(=O)[C@H](CO)NC(=O)[C@H](Cc1ccc(O)cc1)NC(=O)[C@H](CC(=O)O)NC(=O)[C@H](CO)NC(=O)[C@@H](NC(=O)[C@](C)(Cc1ccccc1)NC(=O)[C@@H](NC(=O)CNC(=O)[C@H](CCC(N)=O)NC(=O)C(C)(C)NC(=O)[C@@H](N)Cc1ccc(O)cc1)[C@@H](C)O)[C@@H](C)O)[C@@H](C)CC)C(=O)N[C@@H](CCC(=O)O)C(=O)N[C@@H](Cc1ccccc1)C(=O)N[C@@H](CC(C)C)C(=O)N[C@@H](CC(C)C)C(=O)N[C@@H](CCC(=O)O)C(=O)N[C@@H](CO)C(=O)N[C@@H](Cc1c[nH]cn1)C(=O)N1CCC[C@H]1C(=O)N[C@@H](CO)C(=O)N[C@@H](CO)C(=O)NCC(=O)N[C@@H](C)C(=O)N1CCC[C@H]1C(=O)N1CCC[C@H]1C(=O)N1CCC[C@H]1C(=O)N[C@@H](CO)C(N)=O [Compound 15]	–	548.48	41.01	9.16	148.70	–	–	8.14	53.92	10.64	191.30
